Data from patent US20060079453A1, “Hla binding peptides and their uses” (priority 2002, published 2006).
Read-outs that look alike come from different tables or passages of the source.

Protein sequences, listed by entry. Tags and fused reporters are not part of them. Residues count along the entry.
UniProt Q30154, 30-266: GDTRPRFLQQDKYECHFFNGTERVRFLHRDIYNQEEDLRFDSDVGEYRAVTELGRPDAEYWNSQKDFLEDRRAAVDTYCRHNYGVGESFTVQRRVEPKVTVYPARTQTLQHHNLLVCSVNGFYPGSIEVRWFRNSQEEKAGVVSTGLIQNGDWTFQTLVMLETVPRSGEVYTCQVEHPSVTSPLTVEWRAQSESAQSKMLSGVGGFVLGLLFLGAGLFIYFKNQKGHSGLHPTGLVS
UniProt P79483, 30-266: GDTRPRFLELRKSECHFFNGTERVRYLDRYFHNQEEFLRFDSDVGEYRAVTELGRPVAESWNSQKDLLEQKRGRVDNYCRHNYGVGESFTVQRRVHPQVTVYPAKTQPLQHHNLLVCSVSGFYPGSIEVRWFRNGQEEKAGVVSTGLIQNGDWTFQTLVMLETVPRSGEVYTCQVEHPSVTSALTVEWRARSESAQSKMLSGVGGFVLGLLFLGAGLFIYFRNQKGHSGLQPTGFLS

Tests used:
Test in all cases: biochemical
Type in all cases: binding
[1] = biological target: HLA-DR DRB1*0101 (DR1) (Homo sapiens, UniProt P01903+P01911, A100R/D57E/F55L/F60I/F76Y/I96L/L162R/M171V/P40L/Q125E/R42F/V115G/Y59C); conditions: DRB1 *0101
[2] = biological target: HLA-DR DRB1*1302 (DR13) (Homo sapiens, UniProt P01903+P01911, A100E/A169T/K41T/L162R/M171V/P40S/Q125H/Q178H/Q39Y/Q99D/R42S/S66N/T262R/V115G/W38E/Y61H); conditions: DRBI *1302
[3] = biological target: HLA-DR DRB1*0301 (DR3) (Homo sapiens, UniProt P01903+P01911, A100K/A102G/A103R/A169T/F55Y/I96L/K41T/L162R/M171V/P40S/Q125H/Q178H/Q39Y/R42S/S66N/T106N/T262R/W38E/Y61H)
[4] = biological target: HLA-DR DRB1*0401 (DR4) (Homo sapiens, UniProt P01903+P01911, A100K/A169T/F76Y/I96L/K127E/L162R/M171V/N62H/P40V/Q125Y/R42H/S133A/S149N/S66Y/V115G/V209L/W38E)
[5] = biological target: HLA-DR DRB4*0101 (DR53) (Homo sapiens, UniProt P01903+P13762, G164S); conditions: DRB4 *0101
[6] = biological target: HLA-DR DRB1*1501 (DR15) (Homo sapiens, UniProt P01903+P01911); conditions: DRBI *1501
[7] = biological target: HLA-DR DRB1*1101 (DR11) (Homo sapiens, UniProt P01903+P01911, A100R/A169T/A87E/I96F/K41T/L162R/M171V/P40S/Q125H/Q178H/Q39Y/Q99D/R42S/S66Y/T262R/V115G/W38E); conditions: DRB1 *1101
[8] = biological target: HLA-DR DRB5*0101 (DR51) (Homo sapiens, UniProt P01903+Q30154)
[9] = biological target: HLA-DR DRB1*0802 (DR8) (Homo sapiens, UniProt P01903+P01911, A100R/A103L/A169T/F76Y/H45Y/I96F/K41T/L162R/M171V/P40S/Q125H/Q178H/Q39Y/Q99D/R218S/R42G/S66Y/V115G/W38E)
[10] = biological target: HLA-DR DRB1*0405 (DR4) (Homo sapiens, UniProt P01903+P01911, A100R/A169T/D86S/F76Y/I96L/K127E/L162R/M171V/N62H/P40V/Q125Y/R42H/S133A/S149N/S66Y/V115G/V209L/W38E); conditions: DRB1 *0405
[11] = biological target: HLA-DR DRB1*0901 (DR9) (Homo sapiens, UniProt P01903+P01911, A100R/A103E/D57H/D86V/F55Y/F60I/F76Y/I96F/K127E/L162R/M171V/P40D/Q125H/Q99R/R33Q/R42F/S133A/S66N/T210M/V115G/W38K/Y107V/Y59G/Y89S); conditions: DRB1 *0901
[12] = biological target: HLA-DR DRB1*0701 (DR7) (Homo sapiens, UniProt P01903+P01911, A100R/A102G/A103Q/D57E/D86V/E43K/F76Y/K127E/L162R/M171V/P40G/Q125H/Q99D/R33Q/R42Y/R54Q/S133A/S66F/T210M/V115G/Y107V/Y59L/Y89S)
[13] = biological target: HLA-DR DRB3*0101 (DR52) (Homo sapiens, UniProt P01903+P79483); conditions: read-out: DRB3 *0101

Compound | IC50 [1] [µM] | IC50 [2] [µM] | IC50 [3] [µM] | IC50 ([4]; DRB1 *0401) [µM] | IC50 [5] [µM] | IC50 [6] [µM] | IC50 [7] [µM] | IC50 ([8]; DRB5 *0101) [µM] | IC50 [9] [µM] | IC50 [10] [µM] | IC50 [11] [µM] | IC50 ([12]; DRB1 *0701) [µM] | also measured
CC(C)C[C@H](NC(=O)[C@H](CO)NC(=O)[C@@H](NC(=O)[C@H](CCC(N)=O)NC(=O)[C@@H]1CCCN1C(=O)[C@H](CC(N)=O)NC(=O)[C@H](CCC(N)=O)NC(=O)[C@H](CC(C)C)NC(=O)[C@H](Cc1ccccc1)NC(=O)[C@@H](N)CO)[C@@H](C)O)C(=O)N[C@@H](CS)C(=O)N[C@@H](Cc1ccccc1)C(=O)N[C@@H](CO)C(=O)N[C@@H](CCC(=O)O)C(=O)N[C@@H](CO)C(=O)O | 0.595 | 0.19 | 8.62 | 6.38 | 21.7 | 6.51 |  |  |  |  |  |  | 
CC[C@H](C)[C@H](NC(=O)[C@H](CC(N)=O)NC(=O)[C@H](CCC(=O)O)NC(=O)[C@@H](N)CC(N)=O)C(=O)N[C@H](C(=O)N[C@H](C(=O)N1CCC[C@H]1C(=O)N[C@@H](CC(=O)O)C(=O)N[C@H](C(=O)N[C@@H](CCCCN)C(=O)N[C@H](C(=O)N[C@@H](CC(N)=O)C(=O)N[C@@H](Cc1ccccc1)C(=O)N[C@@H](Cc1ccc(O)cc1)C(=O)N[C@@H](C)C(=O)O)C(C)C)[C@@H](C)O)C(C)C)[C@@H](C)O |  | 9.34 | 0.0048 |  |  | 22.6 | 17.9 | 12.2 | 1.85 |  |  |  | 
CC[C@H](C)[C@H](NC(=O)[C@H](CCCNC(=N)N)NC(=O)[C@H](CC(C)C)NC(=O)[C@H](Cc1ccccc1)NC(=O)[C@@H](NC(=O)[C@H](CCC(=O)O)NC(=O)[C@@H](NC(=O)[C@H](CCCCN)NC(=O)[C@H](CC(=O)O)NC(=O)[C@H](CCSC)NC(=O)[C@@H](N)CC(=O)O)C(C)C)[C@@H](C)O)C(=O)N[C@H](C(=O)N[C@@H](CCC(N)=O)C(=O)N[C@@H](CS)C(=O)N[C@@H](CCCNC(=N)N)C(=O)O)C(C)C | 1.28 | 1.23 | 4.81 | 0.867 | 0.826 | 0.201 | 0.885 | 7.45 |  | 0.622 | 16.1 | 10.5 | 
CC[C@H](C)[C@H](NC(=O)[C@H](CCC(=O)O)NC(=O)[C@H](CCC(=O)O)NC(=O)[C@@H]1CCCN1C(=O)[C@@H](NC(=O)[C@H](CC(=O)O)NC(=O)[C@H](Cc1ccccc1)NC(=O)[C@H](CC(N)=O)NC(=O)[C@@H](N)CCCNC(=N)N)[C@@H](C)CC)C(=O)N[C@@H](CCCCN)C(=O)N[C@@H](CCC(N)=O)C(=O)N[C@@H](CC(C)C)C(=O)N[C@@H](CCC(N)=O)C(=O)N[C@@H](CCC(N)=O)C(=O)N[C@@H](Cc1ccccc1)C(=O)O | 6.97 |  | 26.3 | 18.1 |  |  |  |  |  |  |  |  | 
CC(C)C[C@H](NC(=O)[C@H](CCC(N)=O)NC(=O)[C@H](CC(C)C)NC(=O)[C@@H]1CCCN1C(=O)[C@H](CCC(=O)O)NC(=O)[C@H](Cc1c[nH]c2ccccc12)NC(=O)[C@@H]1CCCN1C(=O)[C@@H](N)CCC(N)=O)C(=O)N[C@@H](Cc1c[nH]cn1)C(=O)N[C@H](C(=O)N[C@@H](CC(=O)O)C(=O)N[C@@H](CCCCN)C(=O)N[C@@H](C)C(=O)N[C@H](C(=O)N[C@@H](CO)C(=O)O)C(C)C)C(C)C |  | 0.695 | 4.86 | 1.3 |  |  |  |  |  | 1.11 |  |  | 
CC(C)C[C@H](NC(=O)[C@H](Cc1c[nH]cn1)NC(=O)[C@H](CC(N)=O)NC(=O)[C@H](CCCNC(=N)N)NC(=O)[C@H](CCC(N)=O)NC(=O)[C@H](Cc1c[nH]cn1)NC(=O)[C@H](Cc1ccc(O)cc1)NC(=O)[C@@H](N)C(C)C)C(=O)N[C@@H](CCCCN)C(=O)N[C@H](C(=O)N[C@H](C(=O)N[C@@H](CC(C)C)C(=O)N[C@@H](CCC(=O)O)C(=O)N[C@@H](CCC(=O)O)C(=O)N[C@@H](CCCCN)C(=O)O)C(C)C)[C@@H](C)O | 0.617 |  | 3.13 | 7.76 | 9.59 | 1.66 | 22 | 0.0047 | 2.1 |  |  | 6.18 | 
CC(C)C[C@H](NC(=O)[C@H](CCCNC(=N)N)NC(=O)CNC(=O)[C@H](CC(N)=O)NC(=O)[C@H](CC(C)C)NC(=O)[C@H](CCC(N)=O)NC(=O)[C@H](Cc1c[nH]c2ccccc12)NC(=O)[C@@H](N)CC(C)C)C(=O)N[C@@H](CCC(=O)O)C(=O)N[C@@H](Cc1ccc(O)cc1)C(=O)N[C@@H](CS)C(=O)N[C@@H](CC(C)C)C(=O)N[C@@H](CCCCN)C(=O)N[C@@H](CC(=O)O)C(=O)N[C@@H](CCCNC(=N)N)C(=O)O | 1.11 | 0.808 | 2.36 | 0.816 | 15.6 | 0.893 | 4.21 |  |  | 1.02 | 5.21 | 10.6 | 
IVSDGNGMNAWVAWRNRC |  |  |  |  |  |  |  |  |  |  |  |  | IC50 [13]: > 6.25 µM; IC50 ([8]; read-out: DRB5 *0101): > 2.22 µM
CC[C@H](C)[C@H](NC(=O)[C@H](CC(C)C)NC(=O)[C@H](CCCNC(=N)N)NC(=O)[C@@H]1CCCN1C(=O)[C@@H]1CCCN1C(=O)[C@H](C)N)C(=O)N[C@@H](CS)C(=O)N[C@@H](CC(=O)O)C(=O)N[C@@H](CO)C(=O)N[C@@H](CCCNC(=N)N)C(=O)N[C@H](C(=O)N[C@@H](CC(C)C)C(=O)N[C@@H](CCC(=O)O)C(=O)N[C@@H](CCCNC(=N)N)C(=O)N[C@@H](Cc1ccc(O)cc1)C(=O)O)C(C)C |  |  | 0.0063 | 9.73 | 2.84 |  |  | 6.09 | 11.2 | 7.14 | 9.35 | 8.94 | 
TVSDGNGMNAWVAWRNRC |  |  |  |  |  |  |  |  |  |  |  |  | IC50 ([3]; read-out: DRB1 *0301): 18.4 µM; IC50 ([4]; read-out: DRB1 *0401): 1 µM; IC50 ([12]; read-out: DRB1 *0701): > 8.33 µM
CC(C)C[C@H](NC(=O)[C@H](CCCCN)NC(=O)[C@H](CC(C)C)NC(=O)[C@@H](N)CCCCN)C(=O)N[C@@H](Cc1ccc(O)cc1)C(=O)N[C@H](C(=O)NCC(=O)N[C@@H](CCC(=O)O)C(=O)N[C@@H](C)C(=O)N[C@@H](CS)C(=O)N[C@@H](CCCNC(=N)N)C(=O)N[C@H](C(=O)NCC(=O)N[C@@H](CC(=O)O)C(=O)N[C@@H](CCCNC(=N)N)C(=O)O)[C@@H](C)O)[C@@H](C)O |  | 0.88 | 18.4 | 5.96 | 20.1 | 0.13 |  | 0.636 | 7.68 |  |  | 8.08 | 
CC(C)C[C@H](NC(=O)[C@H](CCCCN)NC(=O)CNC(=O)[C@H](CCCNC(=N)N)NC(=O)[C@H](CC(C)C)NC(=O)[C@H](Cc1ccccc1)NC(=O)[C@H](CC(N)=O)NC(=O)[C@@H](N)CO)C(=O)N[C@@H](CCCCN)C(=O)N[C@@H](CC(C)C)C(=O)N[C@@H](Cc1ccc(O)cc1)C(=O)N[C@H](C(=O)NCC(=O)N[C@@H](CCC(=O)O)C(=O)N[C@@H](C)C(=O)O)[C@@H](C)O |  | 4.73 | 9.58 | 2.88 | 2.44 | 0.03 |  | 0.0057 |  | 7.18 | 8.1 |  | 
LVNSSQPWEPLQLNV |  |  |  |  |  |  |  |  |  |  |  |  | IC50 ([3]; read-out: DRB1 *0301): 26.1 µM; IC50 ([12]; read-out: DRB1 *0701): 8.34 µM; IC50 ([9]; read-out: DRB1 *0802): 16.9 µM
